Viability data for five compounds are collected here from PubChem BioAssay AID824 (SRMLSC, 2007).

This is a selection; strong and weak results do not stand in their true shares. Inconclusive results are not listed. The source made the active and inactive calls.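 Rule for the calls: active = viability at or below 27.92% in each of two runs, the all-compound median minus 4 SD; inconclusive = no clear call, values can overlap the other calls; inactive = the rest.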

The experiment in a line: growth suppression of PTEN-deleted HCT116, pilot screen, cell-based, HCT116 clonal line, CellTiter-Glo (AID 824).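 Note: 0% = 20 µM Hyamine control and 100% = vehicle cell control.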 Conditions: 60 h, at 10 µM, hits give low values. (In ATP-based viability assays light output follows the ATP content of the culture.)
Regarding `Cc1ccc(NP(C)(=O)Oc2ccccc2)c(C)c1` (stereo not given), the viability (usually a read-out of living cells in per cent, often relative to untreated cells) was inactive: 101%.

As for `CP(=O)(NC(=O)Nc1ccccc1)Oc1ccccc1` (stereo not given), the viability was inactive: 92.7%.

For `Cc1ccc(C)c(NP(C)(=O)Oc2ccccc2)c1` (stereo not given), the viability was inactive: 94.4%.

For the compound `CP(=O)(Nc1ccc2c(c1)OCCO2)Oc1ccccc1` (stereo not given), the viability is inactive: 100%.

As to `CP(=O)(Oc1ccccc1)N1CCOC1=O` (stereo not given), the viability is inactive: 96.8%.
